According to PubChem BioAssay AID504634 (The Scripps Research Institute Molecular Screening Center, 2011):
This is a selection; strong and weak results do not stand in their true shares. Some of these compounds have results that are not shown, active ones among them. The source made the active and inactive calls. Rule as the data show it: active = inhibition mostly above about 23% (no sharp cut-off); inactive = mostly below about 18%.

Protein sequences, listed by entry. Tags and fused reporters are not part of them.
UniProt P47898, whole entry: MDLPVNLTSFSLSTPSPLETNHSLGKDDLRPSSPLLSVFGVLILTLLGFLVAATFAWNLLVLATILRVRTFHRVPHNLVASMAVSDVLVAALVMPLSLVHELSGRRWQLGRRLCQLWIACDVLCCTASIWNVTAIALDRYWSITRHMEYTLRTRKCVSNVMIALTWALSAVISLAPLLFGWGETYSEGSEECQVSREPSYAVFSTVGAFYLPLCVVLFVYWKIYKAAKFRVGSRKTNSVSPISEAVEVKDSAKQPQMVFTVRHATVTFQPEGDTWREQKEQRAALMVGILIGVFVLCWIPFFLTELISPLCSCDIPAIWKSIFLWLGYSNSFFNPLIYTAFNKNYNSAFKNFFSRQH

What follows are compounds tested against 5-hydroxytryptamine receptor 5A (Homo sapiens) (UniProt P47898) (assay: inverse agonism at human 5-HT5A receptor – cell-based, luminescence, full-deck HTS, counter-screen for OPRM1-OPRD1 heterodimer inverse agonist project, primary screen (AID 504634;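 also: 0% = cells with DMSO and 100% = no-cell wells with DMSO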)). Conditions: HTR5A cell line, at 9.3 µM, stronger effect = higher value.

Row | SMILES | inhibition
1 | Cc1ccc(C(=O)NCC2(N3CCCCC3)CCCCC2)cc1 | inactive: -9.46%
2 | CC(C)N1C(=O)CC2(CCN(CCOC(=O)C(O)(c3ccccc3)c3ccccc3)CC2)C1=O | inactive: 0.97%
3 | COc1cc(SC)ccc1C(=O)NCC1(N(C)C)CCCCC1 | inactive: 14.3%
4 | CCN(CC)CC(C)C(C)OC(=O)C(O)(c1ccccc1)c1ccccc1 (stereo not given) | inactive: -5.94%
5 | CN1[C@@H]2CC[C@H]1CC(OC(=O)C(O)(c1ccccc1)c1ccccc1)C2 (stereo not given in full) | inactive: 5.71%
6 | O=C(NCC1(N2CCCCC2)CCCCC1)c1cc([N+](=O)[O-])ccc1Cl | inactive: -1.91%
7 | O=C(NCC1(N2CCCCC2)CCCCC1)c1cccc(Br)c1 | inactive: -13.7%
8 | CCN1CCCC(OC(=O)C2(O)c3ccccc3C=Cc3ccccc32)C1 (stereo not given) | inactive: -37.7%
9 | Cc1cc(C(=O)NCC2(N3CCCCC3)CCCCC2)ccc1[N+](=O)[O-] | inactive: 10.2%
10 | COc1ccc(C(=O)NCC2(N(C)C)CCCCC2)cc1 | inactive: 18.7%
11 | O=C(NCC1(N2CCCCC2)CCCCC1)c1cc(F)c(F)cc1Cl | inactive: -2.08%
12 | C=CCN1CCN(CCOC(=O)C(O)(c2ccccc2)c2ccccc2)CC1 | inactive: -7.17%
13 | CN(C)c1ccc(C(=O)NCC2(N(C)C)CCCCC2)cc1 | inactive: 15.8%
14 | CN(C)C1CCCC1OC(=O)C(O)(c1ccccc1)c1ccccc1 (stereo not given) | inactive: -2.87%
15 | Cc1ccccc1C(=O)NCC1(N2CCCCC2)CCCCC1 | inactive: 21.7%
16 | O=C(NCC1(N2CCCCC2)CCCCC1)c1cccc(Cl)c1 | inactive: -3.41%
17 | COc1ccc(Cl)cc1C(=O)NCC1(N(C)C)CCCCC1 | inactive: -23.9%
18 | COc1cccc(C(=O)NCC2(N3CCCCC3)CCCCC2)c1 | inactive: 1.8%
19 | COc1cc(C(=O)NCC2(N(C)C)CCCCC2)c([N+](=O)[O-])cc1OC | inactive: 4.27%
20 | CN(C)C1(CNC(=O)c2ccc(Br)cc2)CCCCC1 | inactive: 2.53%
21 | CN(C)c1cccc(C(=O)NCC2(N(C)C)CCCCC2)c1 | inactive: 6.5%
22 | O=C(OCCN1CCCC1)C(O)(c1ccccc1)c1ccccc1 | inactive: -5.16%
23 | CC(C)Oc1ccc(C(=O)NCC2(N(C)C)CCCCC2)cc1 | inactive: -0.35%
24 | COc1ccc(Br)c(C(=O)NCC2(N3CCCCC3)CCCCC2)c1 | inactive: 4.02%
25 | O=C(OC1CN2CCC1CC2)C(CO)(c1ccccc1)c1ccccc1 (stereo not given) | inactive: 12.1%
